# Values quoted from earlier work in US9539337B2, “Compositions comprising two different populations of polymer-active agent conjugates” (priority 2003, dated 2017).
# Settings: relative to native interferon alpha-2a
substance,measurement,value
PEGASYS: PEGASYS brand PEGylated interferon alpha-2a (Hoffmann-La Roche),in vitro activity in comparison with the native form of this interferon,about 7%
